Test results reported in publication PMC10535824, “Tryptophan Substitution in CJ-15,208 (cyclo[Phe-D-Pro-Phe-Trp]) Introduces δ-Opioid Receptor Antagonism, Preventing Antinociceptive Tolerance and Stress-Induced Reinstatement of Extinguished Cocaine-Conditioned Place Preference” (Pharmaceuticals, 2023).

System: MOR, KOR, DOR
Assay: opioid receptor involvement in antinociception (KO mice / selective antagonist pretreatment), tail-withdrawal assay
Type: in vivo, mouse
Conditions: dose producing maximum antinociception, i.c.v., KOR KO mice or β-FNA, nor-BNI, naltrindole pretreatment
Method: Except for the Bta^4 analog, contributions of the MOR and KOR were assessed in knockout (KO) mice for those receptors; DOR contribution to the antinociceptive activity of the analogs was assessed by pretreating mice with naltrindole (20 mg/kg, i.p., −20 min) prior to administration of analog (Figure 3).
Assessment of DOR involvement in the agonist activity of each macrocyclic peptide was performed by pretreating additional wild-type mice with a single dose of naltrindole (20 mg/kg, i.p.) 20 min in advance of administration of the macrocyclic peptide.

Question: Which “Receptors Involved in antinociception” value does the source give for CN1CC[C@]23c4c5ccc(O)c4O[C@H]2[C@@H](O)C=C[C@H]3[C@H]1C5 [Morphine, reference compound] here?
Answer: MOR
